Assay results published in ChEMBL document CHEMBL3588796, “Potency enhancement of the κ-opioid receptor antagonist probe ML140 through sulfonamide constraint utilizing a tetrahydroisoquinoline motif” (Bioorg Med Chem, 2015).

Protein sequences, listed by entry. Tags and fused reporters are not part of them. Lines headed by an entry give the natural chain unless they say otherwise; changes in a name come on top.
UniProt P41145: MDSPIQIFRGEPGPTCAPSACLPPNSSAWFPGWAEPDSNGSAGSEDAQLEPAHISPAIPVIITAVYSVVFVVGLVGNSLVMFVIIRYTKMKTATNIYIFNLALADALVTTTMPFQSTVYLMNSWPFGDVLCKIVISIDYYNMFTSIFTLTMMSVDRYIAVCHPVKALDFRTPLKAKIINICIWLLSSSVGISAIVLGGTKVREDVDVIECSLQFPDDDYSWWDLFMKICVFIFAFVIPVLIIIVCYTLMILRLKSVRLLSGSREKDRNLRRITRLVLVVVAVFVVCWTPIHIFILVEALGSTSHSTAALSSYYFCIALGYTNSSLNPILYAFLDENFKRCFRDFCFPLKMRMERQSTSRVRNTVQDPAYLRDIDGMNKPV

Molecular target: Kappa-type opioid receptor (Homo sapiens, UniProt P41145)
Test: Potency index, ratio of IC50 for ML140 to IC50 for test compound against human recombinant kappa opioid receptor

Question: How did the Ratio IC50 turn out when `Cc1ccc(S(=O)(=O)N2CCc3cc(C(=O)NCCN(Cc4ccc(Cl)cc4)C(C)(C)C)ccc3C2)cc1` was run?
Answer: 100
